Measurements reported in ChEMBL document CHEMBL4840312, “Discovery of memantyl urea derivatives as potent soluble epoxide hydrolase inhibitors against lipopolysaccharide-induced sepsis” (Eur J Med Chem, 2021).

Columns and labels:
[1] = Microsomal stability in human liver microsomes assessed as half life in presence of NADPH by LC-MS/MS analysis; assay type: ADME, Microsome
[2] = Plasma protein binding in mouse measured for 5 hrs by LC-MS/MS analysis; assay type: ADME, cell-free

t1/2 [1]: 25.37 min | PPB [2]: 98.6%
Compound: CC12CC3CC(C)(C1)CC(NC(=O)Nc1ccc(C(=O)N4CCCCC4)cc1)(C3)C2
